Values of other authors as cited in patent US10017787B2, “Production of alkenes from 3-hydroxycarboxylic acids via 3-hydroxycarboxyl-nucleotidylic acids” (Global Bioenergies, priority 2013, dated 2018).

Tested on: Rhodotorula minuta
Details: conversion of isovalerate to isobutylene; Fujii T. et al., 1988; cited from earlier work

Substance: isovalerate
- turnover number (kcat): 1e-05 s⁻¹
